Earlier results on one substance are cited in patent US10765111B1, “Cryosolutions and uses thereof” (Akron Biotechnology, LLC, priority 2014, dated 2020).

In the case of dextran-40, for the setting “retained for several more days after intravenous infusion”, the “remaining, retained” value is 30%. Also, under “within the first 24 hours after intravenous infusion”, the excreted in urine is reported as roughly 70%.
